Earlier results as cited in patent US20240131064A1, “TREATMENT OF CANCER PATIENTS WITH TUMOR INFILTRATING LYMPHOCYTE THERAPIES IN COMBINATION WITH BRAF INHIBITORS AND/OR MEK INHIBITORS” (Iovance Biotherapeutics, Inc., priority 2020, published 2024).

Conditions: rhIL-2 lot 10200121 (Cellgenix), 1 mg vial, per COA

Substance: rhIL-2: purified, lyophilized recombinant human interleukin-2 (Cellgenix lot 10200121)
- specific activity: 25×10^6 IU/mg
